# Assay results from patent EP1209158A1, “Substituted beta-carbolines” (Aventis Pharma Deutschland GmbH, priority 2000, dated 2002).
# Chains of the proteins cited; added tags and fusions are not shown. Lines headed by an entry give the natural chain unless they say otherwise; changes in a name come on top.
# UniProt O14920: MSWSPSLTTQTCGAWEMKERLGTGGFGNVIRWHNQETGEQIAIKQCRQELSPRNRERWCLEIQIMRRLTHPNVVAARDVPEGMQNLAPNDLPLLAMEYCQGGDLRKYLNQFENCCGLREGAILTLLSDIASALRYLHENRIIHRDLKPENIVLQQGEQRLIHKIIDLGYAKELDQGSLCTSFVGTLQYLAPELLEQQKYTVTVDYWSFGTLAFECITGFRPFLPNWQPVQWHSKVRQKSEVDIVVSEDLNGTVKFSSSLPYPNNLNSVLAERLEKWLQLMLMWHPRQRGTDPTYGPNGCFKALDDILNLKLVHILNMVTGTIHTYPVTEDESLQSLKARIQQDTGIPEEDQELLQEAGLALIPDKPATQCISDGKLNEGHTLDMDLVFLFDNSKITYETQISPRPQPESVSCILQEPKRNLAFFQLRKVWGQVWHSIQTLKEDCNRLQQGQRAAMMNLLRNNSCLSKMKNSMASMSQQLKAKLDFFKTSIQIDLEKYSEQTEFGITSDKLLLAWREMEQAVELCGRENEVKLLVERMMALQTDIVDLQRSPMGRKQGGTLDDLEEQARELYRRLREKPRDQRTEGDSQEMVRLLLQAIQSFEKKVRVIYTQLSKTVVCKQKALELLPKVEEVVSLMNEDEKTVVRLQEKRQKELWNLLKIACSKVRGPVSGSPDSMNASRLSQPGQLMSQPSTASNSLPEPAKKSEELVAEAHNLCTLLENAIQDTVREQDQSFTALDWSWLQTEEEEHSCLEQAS
# UniProt O15111: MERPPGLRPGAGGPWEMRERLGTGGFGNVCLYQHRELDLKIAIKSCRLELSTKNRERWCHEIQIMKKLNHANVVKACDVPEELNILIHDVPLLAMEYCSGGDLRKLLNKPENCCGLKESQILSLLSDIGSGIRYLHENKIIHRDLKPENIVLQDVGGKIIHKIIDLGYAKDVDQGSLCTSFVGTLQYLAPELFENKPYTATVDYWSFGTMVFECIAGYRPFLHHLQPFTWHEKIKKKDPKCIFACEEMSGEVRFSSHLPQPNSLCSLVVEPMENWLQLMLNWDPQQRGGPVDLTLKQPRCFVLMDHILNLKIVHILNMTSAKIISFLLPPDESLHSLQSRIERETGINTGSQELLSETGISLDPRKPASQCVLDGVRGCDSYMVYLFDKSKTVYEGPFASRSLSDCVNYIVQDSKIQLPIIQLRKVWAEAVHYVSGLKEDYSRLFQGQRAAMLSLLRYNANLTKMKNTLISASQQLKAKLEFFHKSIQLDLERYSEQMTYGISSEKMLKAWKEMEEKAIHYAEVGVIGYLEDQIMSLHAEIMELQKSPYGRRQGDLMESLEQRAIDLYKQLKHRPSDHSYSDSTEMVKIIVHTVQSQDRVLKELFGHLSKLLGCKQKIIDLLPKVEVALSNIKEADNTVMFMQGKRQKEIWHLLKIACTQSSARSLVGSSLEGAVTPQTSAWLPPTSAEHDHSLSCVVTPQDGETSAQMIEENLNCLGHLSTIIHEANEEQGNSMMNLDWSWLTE
# Target: T1, IκBα-kinase complex (Homo sapiens, UniProt O14920+O15111)
# T1 construct: IKBα kinase complex was prepared by first diluting 10 mL of HeLa S3 cell-extracts S100 fraction; endogenous in cells; host or cells: HeLa S3 (S100 fraction, 40% ammonium sulfate cut, Superose-6 fractions at about 670 kDa)
# Type: biochemical
# Settings: read-out: IkB-kinase IC50
substance,measurement,value
7-chloro-9-(dimethylamino)-β-carboline trifluoroacetate [Example 44],pIC50,5.70

# pIC50: −log10 of the molar value.
